Measurements reported in patent publication US20240383959A1, “CELL-FREE METHODS AND COMPOSITIONS COMPRISING TAGLESS THERAPEUTIC HORMONES” (Northwestern University, priority 2021, published 2024).

Amino acid sequences for entries named in this document (tags omitted). Residues count along the entry.
UniProt P43220, 24-139 limits assumed: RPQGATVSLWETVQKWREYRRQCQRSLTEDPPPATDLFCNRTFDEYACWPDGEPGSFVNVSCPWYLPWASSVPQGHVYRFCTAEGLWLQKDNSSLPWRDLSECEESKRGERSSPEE

Experiments:
[1] = molecular target: T1, extracellular domain of the GLP-1 receptor (Homo sapiens, UniProt P43220); experiment: AlphaLISA cross-titration of GLP-1 and GLP-1 receptor; assay type: binding
T1 construct: Fc-tagged extracellular domain of the GLP-1 receptor; purchased Sino Biological 13944-H02H

[2] = molecular target: T2, GLP-1 receptor (Homo sapiens, UniProt P43220); experiment: Biolayer interferometry (BLI) of GLP-1 binding to its receptor; conditions: compared with negative control without receptor on sensor tip; undiluted CFPS GLP-1 or 100 μg/ml commercial GLP-1
T2 construct: purchased MyBioSource.com MBS949592

For Glucagon like peptide-1 [GLP-1], the “GLP-1 binding to its receptor (AlphaLISA)” value ([1]; sFLAG tagged GLP-1, anti-FLAG donor beads, Fc-tagged receptor extracellular domain, Protein A acceptor beads) was “detected GLP-1 binding to its receptor”, the “AlphaLISA binding signal above the background noise” value ([1]; sFLAG tagged GLP-1, low signal relative to GH) was “more than 3 standard deviations” and the “GLP-1 binding to its receptor (BLI)” value [2] was “no binding detected at a level greater than the negative control”.
